Biological target: human KOR (CHO cell membranes) (Homo sapiens (Human), UniProt P41145)
Assay: [35S]GTPγS binding assay, kappa receptor
Conditions: for Kappa % stim: single concentration (10 μM) versus the standard U69,593

By UniProt entry, the sequences of proteins in these tests, tags left out. Where a name states a change or a piece, a line headed by the entry shows the natural chain unless it says otherwise.
UniProt P41145: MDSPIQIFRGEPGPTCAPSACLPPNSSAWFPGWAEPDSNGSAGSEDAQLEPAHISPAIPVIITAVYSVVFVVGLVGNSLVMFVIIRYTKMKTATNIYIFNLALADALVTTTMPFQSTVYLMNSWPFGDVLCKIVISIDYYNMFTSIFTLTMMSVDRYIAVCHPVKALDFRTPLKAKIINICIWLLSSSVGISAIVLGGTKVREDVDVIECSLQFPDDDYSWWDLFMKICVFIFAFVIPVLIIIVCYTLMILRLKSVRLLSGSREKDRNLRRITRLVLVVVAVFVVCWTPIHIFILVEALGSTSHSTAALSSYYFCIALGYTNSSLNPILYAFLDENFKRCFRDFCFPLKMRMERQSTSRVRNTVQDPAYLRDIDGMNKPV

CO[C@]12CC[C@@]3(C[C@]1(C)[C@H](O)c1ccc(F)cc1)[C@H]1Cc4ccc(O)c5c4[C@@]3(CCN1CC1CC1)[C@H]2O5
Kappa % stim: −5%

CO[C@]12C=C[C@@]3(C[C@]1(C)[C@H](O)c1ccccc1)[C@H]1Cc4ccc(O)c5c4[C@@]3(CCN1CC1CC1)[C@H]2O5
Kappa antagonist potency Ke (against standard agonist U69,593): 410 pM
Kappa % stim: 3%

CO[C@]12CC[C@@]3(C[C@]1(C)[C@H](O)c1cccc(C)c1)[C@H]1Cc4ccc(O)c5c4[C@@]3(CCN1CC1CC1)[C@H]2O5
Kappa % stim: −1%

Reference: patent US9480684B2, “Orvinol and thevinol derivatives useful in the treatment of anxiety or a compulsive disorder” (dated 2016)
